Results on two substances are retold here after US6890727B2, “Diagnostic assay for Alzheimer's disease: assessment of Aβ abnormalities” (The General Hospital Corporation, priority 1994, dated 2005).

The assay in a line: 65Zn2+ binding to immobilized peptide (dot-blot, Scatchard competition analysis). Conditions: dot-blot or blot of tryptic digest probed with ^65Zn^2+. Here is the method:
^65Zn^2+ Binding Studies—Dissolved peptides (1.2 nMol, unless other wise stated) were dot-blotted onto polyvinylidene difluoride membrane (0.2-μm pore size; Pierce Chemical Co.), washed twice with chelating buffer (200 μl×100 mM NaCl, 20 mM Tris-HCl, 1 mM EDTA, pH 7.4), then five times with blocking buffer (200 μl×100 mM NaCl, 20 mM Tris-HCl, 1 mM MnCl2, pH 7.4), and then incubated (60 min, 20° C.) with ^65Zn (unless otherwise stated 130,000 cpm, […] ^65ZnCl2 in 200 μl of blocking buffer±competing metal ion chloride). The dot-blot was then washed with blocking buffer (5×200 μl), the dot excised, placed in a test tube, and assayed by γ-counting (11% efficiency). The equilibration volume for stoichiometry estimates was regarded as 6×200 μl. The 214 nm UV absorbance of the unbound flow-through was assayed to determine the total amount of peptide remaining bound onto the membrane. […] To alter the pH, the ^65Zn incubation was carried out in the presence of 100 mM buffer: MOPS (pH 6.5-7.0), MES (pH 5.0-6.0), acetate (pH 3.5-4.5). The dot-blot apparatus was washed with detergent and EDTA (50 mM) then rinsed and siliconized between use.
Aliquots of Aβ were incubated (60 min) with ^65Zn^2+ in the presence of varying concentrations of unlabeled Zn^2+ (0.01-50 μM total). Values shown are means±S.D., n≧3. […] (FIG. 1b) depicts specificity of the Zn^2+ binding site for various metals. […]

1-17: Aβ fragment, residues 1-17: the “zinc binding (in words)” value is recorded as “do not individually bind zinc”.
Take 12-28: Aβ fragment, residues 12-28: the “zinc binding (in words)” value is recorded as “do not individually bind zinc”.
